Among the data in ChEMBL document CHEMBL5390264, “Exploring Fatty Acid Mimetics as NR4A Ligands” (J Med Chem, 2023) are Activity values, retold here.

The assay concerns the target T1, Retinoic acid receptor RXR-alpha (Homo sapiens) (UniProt P19793).
T1 sequence (whole entry): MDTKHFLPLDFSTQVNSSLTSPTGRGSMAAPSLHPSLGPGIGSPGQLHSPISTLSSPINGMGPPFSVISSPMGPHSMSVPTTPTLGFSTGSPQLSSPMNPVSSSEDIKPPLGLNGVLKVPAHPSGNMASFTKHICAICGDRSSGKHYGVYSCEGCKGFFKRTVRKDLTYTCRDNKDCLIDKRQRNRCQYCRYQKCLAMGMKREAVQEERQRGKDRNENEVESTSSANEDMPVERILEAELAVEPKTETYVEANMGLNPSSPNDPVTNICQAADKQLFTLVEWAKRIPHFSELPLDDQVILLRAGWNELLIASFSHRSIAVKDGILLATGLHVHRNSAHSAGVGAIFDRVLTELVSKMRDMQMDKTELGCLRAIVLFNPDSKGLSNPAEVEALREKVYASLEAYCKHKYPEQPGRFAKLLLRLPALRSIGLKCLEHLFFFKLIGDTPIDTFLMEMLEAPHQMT
In words: Agonist activity at human full length RXRalpha transiently transfected in HEK293T cells at 30 uM incubated for 16 hrs by Gal4-hybrid reporter gene based Dual-glo luciferase assay. The class given is cell-based. The note with it: filed as agonist. In general terms: A reporter such as luciferase makes a cellular process visible.

Calls of active or inactive are those of the source. The rule behind the calls is not given here.

Regarding `O=C(O)c1cccc(OCc2cccc(C(F)(F)F)c2)c1`, the outcome was Active.
